We go through one substance from patent publication US6537522B1, “Neuroprobes for mapping monoamine reuptake sites” (Amersham PLC, priority 1992, dated 2003).

The chains behind the UniProt entries cited, without tags or fusion partners.
UniProt P31652, whole entry: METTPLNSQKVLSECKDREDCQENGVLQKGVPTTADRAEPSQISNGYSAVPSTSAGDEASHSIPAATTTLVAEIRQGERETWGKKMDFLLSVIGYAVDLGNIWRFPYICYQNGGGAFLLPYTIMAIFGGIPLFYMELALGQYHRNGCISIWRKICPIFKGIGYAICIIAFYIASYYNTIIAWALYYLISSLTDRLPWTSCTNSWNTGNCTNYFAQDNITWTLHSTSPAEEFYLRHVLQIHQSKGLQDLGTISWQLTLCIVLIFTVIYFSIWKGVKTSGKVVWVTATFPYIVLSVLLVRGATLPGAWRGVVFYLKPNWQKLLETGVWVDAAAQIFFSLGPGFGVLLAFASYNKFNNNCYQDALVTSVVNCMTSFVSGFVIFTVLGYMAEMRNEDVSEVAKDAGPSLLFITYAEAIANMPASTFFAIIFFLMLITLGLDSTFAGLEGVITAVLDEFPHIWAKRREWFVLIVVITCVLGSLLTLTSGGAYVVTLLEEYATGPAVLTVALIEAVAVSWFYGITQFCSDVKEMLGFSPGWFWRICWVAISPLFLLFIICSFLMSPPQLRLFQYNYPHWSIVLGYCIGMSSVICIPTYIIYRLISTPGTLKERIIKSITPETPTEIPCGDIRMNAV

The target of the assay is T1, 5-HTT (5-HT transporter) (Rattus norvegicus, UniProt P31652).
T1 construct: or frontoparietal cerebral cortex (for 5-HTT and NET); from tissue; host or cells: rat brain frontoparietal cerebral cortex, crude membrane fraction
Kind of assay: 5-HTT assay, [3H]paroxetine binding, rat frontoparietal cerebral cortex membranes. The note with it: radioligand, 20 Ci/mmol. As to the method: N-phthalimidopropyl-β-CIT (see Example 10) was analyzed as follows. Stock solutions (1 mM) of test agents were made in 95% ethanol/DMSO (1/1, v/v) and stored at −5° C. until used by diluting in a large excess of each assay buffer. Agents are tested at six concentrations in duplicate, with a crude membrane fraction of homogenates of rat brain corpus striatum (for DAT assays) in Tris-citrate buffer (pH 7.4) containing Na^+ ([…]) and Mg^2+ (4 mM) or frontoparietal cerebral cortex (for 5-HTT and NET) in 50 mM Tris-HCl buffer (pH 7.4) containing Na^+ ([…]) and K^+ (5 mM) following methods reported by Neumeyer et al., J. Med. Chem. 37, 1558-1561 (1991), the whole of which is incorporated by reference herein.

[^3H]paroxetine [reference compound] returned a Kd of 0.15 nM.
